Assays:
[1] = target: T1, Peroxisome proliferator-activated receptor delta (Homo sapiens, UniProt Q03181); assay: Displacement of Fluormone-Pan-PPAR Green from human GST-tagged PPARdelta LBD by TR-FRET assay
T1 sequence (Q03181 whole entry): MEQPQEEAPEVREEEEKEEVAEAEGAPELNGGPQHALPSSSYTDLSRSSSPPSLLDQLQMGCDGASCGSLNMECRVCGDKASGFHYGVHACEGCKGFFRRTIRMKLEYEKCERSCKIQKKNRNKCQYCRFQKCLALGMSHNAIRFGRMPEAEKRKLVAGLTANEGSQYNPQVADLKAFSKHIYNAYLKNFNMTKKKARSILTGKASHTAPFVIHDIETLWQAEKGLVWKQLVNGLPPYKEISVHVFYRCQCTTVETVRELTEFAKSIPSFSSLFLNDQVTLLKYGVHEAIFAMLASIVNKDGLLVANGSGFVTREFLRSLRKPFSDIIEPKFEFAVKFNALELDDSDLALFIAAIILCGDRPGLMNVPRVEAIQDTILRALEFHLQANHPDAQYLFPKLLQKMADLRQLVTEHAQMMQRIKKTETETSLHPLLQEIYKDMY

Chains of the proteins cited; added tags and fusions are not shown.
UniProt P30542, whole entry: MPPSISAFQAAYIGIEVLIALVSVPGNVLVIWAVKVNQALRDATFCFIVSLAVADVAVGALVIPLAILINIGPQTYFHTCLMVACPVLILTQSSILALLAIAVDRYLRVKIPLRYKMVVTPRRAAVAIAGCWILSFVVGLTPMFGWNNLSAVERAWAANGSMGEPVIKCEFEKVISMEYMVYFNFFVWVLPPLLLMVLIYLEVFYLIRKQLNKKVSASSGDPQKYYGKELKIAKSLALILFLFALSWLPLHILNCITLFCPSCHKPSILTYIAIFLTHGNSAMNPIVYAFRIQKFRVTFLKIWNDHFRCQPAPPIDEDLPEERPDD

Adenosine receptor A2a = Adenosine receptor A2a (Homo sapiens, UniProt P29274); assay: biochemical
Adenosine receptor A1 = Adenosine receptor A1 (Homo sapiens, UniProt P30542); assay: Displacement of [3H]CCPA from human A1 receptor expressed in CHO cell membranes after 60 mins by gamma counting method; type: cell-based

## O[C@@H]1[C@H](O)CS[C@H]1n1cnc2c(NCc3cccc(Cl)c3)nc(Cl)nc21
[1]
  Ki: 10.2 nM

## O[C@@H]1[C@H](O)CS[C@H]1n1cnc2c(NCc3cccc(I)c3)ncnc21
Adenosine receptor A2a
  Ki: 440 nM
Adenosine receptor A1
  Ki: 860 nM
